PubChem BioAssay AID651819 (National Center for Advancing Translational Sciences (NCATS), 2012)
The list shows a part of the results, in another mix than the full data. Calls of active or inactive are those of the source. Rule as the data show it: active = activity change below about -30%; inactive = the rest.

test system: cytosolic chaperonin (CCT/TRiC complex); test: High-Throughput Screening for Modulators of Cytosolic Chaperonin Activity; settings: purified chaperonin ATPase assay, HTRF ADP detection, 30 min; stronger effect = lower value
Outline: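 We incubate TRiC, 40 or 20 nM final, with library compounds at 76 uM and 10 uM ATP for 30 min at 37 °C. ADP formed is detected with Transcreener HTRF reagents after 30 min at room temperature.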
% is scaled to controls: 0 for no effect and ±100 for the full control effect.

| SMILES | activity change |
| --- | --- |
| CC1CCNP(=O)(N(CCCl)CCCl)O1 (configuration not stated) | inactive: -0.665% |
| O=P(Nc1ccccn1)(c1cccc2ccccc12)c1cccc2ccccc12 | inactive: -1.49% |
| Cc1cc(SC(NC=O)C(Cl)(Cl)Cl)ncn1 (configuration not stated) | inactive: 0.875% |
| O=[N+]([O-])c1ccc(Nc2ccc(Oc3ccc([N+](=O)[O-])cc3[N+](=O)[O-])cc2)c([N+](=O)[O-])c1 | inactive: -0.958% |
| CCOC(=O)Nc1cccc([As](=O)(O)O)c1 | inactive: -3.07% |
| [N-]=[N+]=NC1CCCCC1NC(=O)c1cc([N+](=O)[O-])cc([N+](=O)[O-])c1 (configuration not stated) | inactive: -1.41% |
| Cc1ccc(OP(=O)(Nc2ccc([N+](=O)[O-])cn2)Oc2ccc(C)cc2)cc1 | inactive: -0.523% |
| Cc1ccc2nc3c(c(C)c2c1)CC(C(Cl)Cl)S3 (configuration not stated) | inactive: 1.01% |
| C[As](=O)(O)c1cccc(C(=O)O)c1 | inactive: -2.12% |
| O=[As](O)(c1ccc(O)cc1)c1ccccc1O | inactive: 0.735% |
| O=[N+]([O-])c1ccc(-c2cc([N+](=O)[O-])c(O)c([N+](=O)[O-])c2)cc1 | inactive: 0.594% |
| COc1cc(C(=O)NCC2(N3CCOCC3)CCCCC2)ccc1OCC(C)C | inactive: 0.63% |
| CC(C)NC(=O)NP(=O)(Oc1ccccc1)Oc1ccccc1 | inactive: -0.265% |
| O=C(OC1CN2CCC1CC2)c1cccc2[nH]cnc12 (configuration not stated) | inactive: 1.46% |
| CCN(CC)C(=S)SC(NC=O)C(Cl)(Cl)Cl (configuration not stated) | inactive: -6.13% |
| O=[N+]([O-])c1cc([N+](=O)[O-])c(-c2ccn[nH]2)s1 | inactive: -0.784% |
| ClCCSc1nnc(-c2cccnc2)o1 | inactive: 0.558% |
| COC(=O)C1(C)COP(=O)(N2CCCCCC2)OC1 (configuration not stated) | inactive: -0.47% |
| CC(C)c1ccc(OP(=O)(Nc2ccccn2)Oc2ccccc2F)cc1 (configuration not stated) | inactive: -1.7% |
| O=P1(N(CCCl)CCCl)OCCCN1CCCl (configuration not stated) | inactive: 1.96% |
| O=P1(N(CCCl)CCCl)Nc2ccccc2N1 | inactive: -1.41% |
| COc1ccc2nc(NP(=O)(c3ccccc3)c3ccccc3)sc2c1 | inactive: 0.922% |
| COc1cc(I)ccc1[As](=O)(O)O | inactive: 0.923% |
| Cc1c2c(nc3ccccc13)SC(C(Cl)Cl)C2 (configuration not stated) | inactive: -0.305% |
| O=C(OC1CN2CCC1CC2)C12CC3CC(CC(C3)C1)C2 (configuration not stated) | inactive: -1.93% |
| Cc1cc(=O)[nH]c(N[N+](=O)[O-])n1 | inactive: 5.59% |

| SMILES | activity change |
| --- | --- |
| O=[N+]([O-])c1cc(Oc2ccc([N+](=O)[O-])cc2C(F)(F)F)cc([N+](=O)[O-])c1 | inactive: -1.04% |
| COc1ccc(N/C(=N/P(=O)(N2CCOCC2)N2CCOCC2)N2CCOCC2)cc1 | inactive: -0.459% |
| Cc1cccc(OCC(=O)OC2CN3CCC2CC3)c1 (configuration not stated) | inactive: -0.572% |
| O=[As](O)(c1cccc(O)c1)c1cccc(O)c1 | inactive: 0.97% |
| O=C(OC1CN2CCC1CC2)c1ccc(Cl)cc1 (configuration not stated) | inactive: -0.485% |
| O=[As](O)(O)c1cccnc1 | inactive: -1.96% |
| COc1cc(C(=O)NCC2(N3CCOCC3)CCCCC2)cc(Cl)c1OC(C)C | inactive: -3.82% |
| CS(=O)(=O)c1ccc(Cl)c(NC(=O)COC(=O)C(O)(c2ccccc2)c2ccccc2)c1 | inactive: 0.184% |
| COc1cc(C2NCCC3(OCCO3)C2(C)C)cc(OC)c1OC (configuration not stated) | active: -35.1% |
| CCOP(=O)(Nc1cccc2ccccc12)OCC | inactive: -1.4% |
| Nc1cccc2c([As](=O)(O)O)cccc12 | inactive: 0.86% |
| Cc1ccc(NCCc2c([N+](=O)[O-])cc([N+](=O)[O-])cc2[N+](=O)[O-])cc1 | inactive: 2.04% |
| CCCOP(=S)(Nc1nc(N)cc(=O)[nH]1)OCCC | inactive: -1.78% |
| Nc1ccccc1[As](=O)(O)c1ccccc1 | inactive: 0.266% |
| O=C(O)COc1ccc([As](=O)(O)O)cc1[N+](=O)[O-] | inactive: -1.37% |
| CCOP1(=S)c2c(C)nn(CCC#N)c2N=C(c2ccccc2F)N1C (configuration not stated) | inactive: 2.12% |
| O=P(Nc1nccs1)(Oc1ccccc1)Oc1ccccc1 | inactive: 2.29% |
| O=P(Nc1nccs1)(c1ccccc1)c1nc2ccccc2s1 (configuration not stated) | inactive: -0.806% |
| CS(=O)(=O)c1cc([N+](=O)[O-])c2no[n+]([O-])c2c1 | inactive: 0.143% |
| N#CCCN(C(=O)COC(=O)C(O)(c1ccccc1)c1ccccc1)c1ccc(F)cc1 | inactive: 0.952% |
| CCOP1(=S)c2c(C)nn(CCC#N)c2N=C(c2ccc(F)cc2)N1C (configuration not stated) | inactive: -5.67% |
| CN(C(=O)Cc1ccccc1)[C@@H]1CC[C@]2(CCCO2)C[C@H]1N1CCCC1 | inactive: 0.28% |
| O=[N+]([O-])c1ccc2c(c1)nnn2O | inactive: -1.92% |
| CN(C)C(=O)c1cc([N+](=O)[O-])cc2c1-c1c(cc([N+](=O)[O-])cc1[N+](=O)[O-])C2=O | inactive: -0.655% |
| CN(C(=O)Cc1ccc(Cl)c(Cl)c1)[C@H]1CC[C@@]2(CCCO2)C[C@@H]1N1CCCC1 | inactive: -0.203% |
| NC(=O)Nc1ccc([As](=O)(O)O)cc1 | inactive: -0.57% |

| SMILES | activity change |
| --- | --- |
| CN(C)C1(CNC(=O)c2ccc(S(C)(=O)=O)cc2)CCCCC1 | inactive: -0.962% |
| O=C(/C=C/c1ccccc1)OC1CN2CCC1CC2 (configuration not stated) | inactive: 0.425% |
| CCCC1OP(=O)(Nc2ccccc2)OCC1CC (configuration not stated) | inactive: 1.32% |
| Cc1nn(-c2ccccc2)c2c1P(=O)(N1CCOCC1)N(C)C(c1ccccc1)=N2 (configuration not stated) | inactive: 0.446% |
| CC1CCC(C(C)C)C(OP(=O)(Nc2ccccn2)c2ccccc2)C1 (configuration not stated) | inactive: 0.0783% |
| Cc1ccc(C(=O)OC2CN3CCC2CC3)cc1 (configuration not stated) | inactive: -0.61% |
| Nc1cccc([As](=O)(O)c2ccccc2)c1 | inactive: -1.09% |
| O=[As](O)(c1cccs1)c1cccs1 | inactive: 1.36% |
| Cc1ccc(OCC(=O)OC2CN3CCC2CC3)cc1 (configuration not stated) | inactive: 0.0368% |
| O=P1(Nc2ccc(Br)cn2)COc2ccccc2OC1 | inactive: -2.17% |
| NS(=O)(=O)c1cccc(NC(=O)COC(=O)C(O)(c2ccccc2)c2ccccc2)c1 | inactive: 1.51% |
| Cc1ccc(S(=O)(=O)N(CCCN)CCCc2c(C)nc(N)[nH]c2=O)cc1 | inactive: -3.09% |
| O=P1(Nc2ncccn2)COc2ccccc2OC1 | inactive: -4.88% |
| O=P1(N(CCCl)CCCl)NCCC(C(F)(F)F)O1 (configuration not stated) | inactive: -1.35% |
| Clc1n[nH]nc1-c1nn[nH][15n]1 | inactive: -0.0184% |
| CC(C)(C)C(=O)NC(Sc1ncccn1)C(Cl)(Cl)Cl (configuration not stated) | inactive: 1.12% |
| O=P1(Nc2ccccn2)COc2ccccc2OC1 | inactive: -0.304% |
| CCC1=CC2Cc3nc4ccc(Cl)cc4c(N)c3C(C1)C2 (configuration not stated) | inactive: 0.106% |
| CCOP(=O)(NC(=NC(C)c1ccccc1)NC(C)c1ccccc1)OCC (configuration not stated) | inactive: 1.44% |
| CCOP(=O)(Nc1ccc(C)cn1)OCC | inactive: 1.04% |
| CN(CCCl)Cc1cc(Cl)c(NC2=NCCN2)c(Cl)c1 | inactive: -0.524% |
| CC(C)/C=N\N=C(\N)N[N+](=O)[O-] | inactive: 2.72% |
| CN(C(=O)Cc1ccc(Cl)c(Cl)c1)[C@@H]1CCCC[C@H]1N1CCCC1 | inactive: -3.42% |
| CC1(CBr)Cn2c(nc3ccccc3c2=O)S1 (configuration not stated) | inactive: 0.875% |
| COc1ccccc1CNC(=O)COC(=O)C(O)(c1ccccc1)c1ccccc1 | inactive: -4.3% |
